How the values were obtained:
celastrol signature = assay: Connectivity Map query with the celastrol signature
gedunin signature = assay: Connectivity Map query with the gedunin signature

SMILES: CCCN1CCC[C@@H]2Cc3n[nH]cc3C[C@H]21 [quinpirole]
- celastrol score (connectivity score) (celastrol signature): 0
- gedunin score (connectivity score) (gedunin signature): 0

From patent US20110263693A1, “CELASTROL, GEDUNIN, AND DERIVATIVES THEREOF AS HSP90 INHIBITORS” (DANA-FARBER CANCER INSTITUTE, INC., priority 2006, published 2011)
